# Literature values in US20080254497A1, “Response Predictors for Erbb Pathway-Specific Drugs” (MONOGRAM BIOSCIENCES, INC., priority 2004, published 2008).
# Details: various studies; cited from earlier work
substance,measurement,value
Erbitux: anti-EGFR antibody-based drug,mean concentration of Erbitux,169-235 ugs/ml
same,trough concentration of Erbitux,40-85 ugs/ml
